# In PMC4449000:
# Target: purified HLA-B*57:01 with human β2-microglobulin (human)
# Assay: radioligand binding
substance,measurement,value
radiolabeled … (peptide),fold increase in bound peptide with abacavir against no drug,< 5 fold
same,fold increase in bound peptide with acyclovir against no drug,2 fold
